# Binding of CDR-mutated scFvs to a peptide of the spike HR2 region

Reference: Li et al. 2023, doi:10.1038/s41467-023-39022-2. File: FLAb, binding data.

Target peptide (SARS-CoV-2 spike, HR2 region): PDVDLGDISGINAS

The variants keep the light chain, the linker and the frameworks of Ab-14 (scFv order VH, a (GGGGS)3 linker, VL).
VH: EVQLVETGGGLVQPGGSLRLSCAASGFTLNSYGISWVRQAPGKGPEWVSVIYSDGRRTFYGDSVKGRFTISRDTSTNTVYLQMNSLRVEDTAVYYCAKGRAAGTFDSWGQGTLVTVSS
VL: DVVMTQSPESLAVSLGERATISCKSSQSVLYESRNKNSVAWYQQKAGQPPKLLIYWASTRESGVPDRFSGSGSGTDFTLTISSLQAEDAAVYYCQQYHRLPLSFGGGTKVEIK

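The starting antibody came from a phage panning campaign against this peptide. This is the validation round: designs drawn from the data on random variants, tested in the same kind of assay. Their group label is 14H_En_Gen (En: ensemble of fine-tuned language models; Gen: genetic algorithm). The scFvs were displayed on barcoded MATa yeast, the peptide on MATalpha yeast. Pairs that bind mate more often; barcode pairs of the diploids are counted by sequencing. Scores were corrected for input abundance and mapped to Kd with protein pairs of known affinity run in the same pool. Each pool was mated in six replicate cultures.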

Variants are written as CDR1, CDR2 and CDR3 of the heavy chain (limits as in the source). Parent: GFTLNSYGIS, VIYSDGRRTFYGDSVK, GRAAGTFDS.
Values are log10 of the apparent Kd in nM; lower means stronger binding.
Replicates are averaged; those with no signal do not enter the mean.
An entry "n.d." has no value in the source: the pair was not observed among the diploids in that replicate. This suggests poor binding but is not conclusive.
The parent sequence was in this pool as ten entries: three were never detected, three once, and four in most replicates, with averages from 0.34 to 2.37.
As a blank, each scFv also met three strains without target: over all heavy chain designs, 1% of these pairings were detected, typically at 2.08 and seldom below 0.84. For each scFv, signals with the empty controls are counted beside the result, with their mean in brackets.
A sequence measured in both rounds can read differently, since the two assays cover different ranges.
The authors averaged sequences with at least three values out of six and counted those with two or fewer as poor binders.

| # | CDR-H1 | CDR-H2 | CDR-H3 | replicates, log10 nM | mean log10 Kd (nM) | control signals |
|---|---|---|---|---|---|---|
| 1 | GFDLNEYGIS | VIYADGMRTAYADSVK | GNLAGTFDL | -0.38 -0.54 -0.54 -0.53 -0.31 -0.27 | -0.43 | 0 of 18 |
| 2 | GFDLDEYGIS | VIYADGMRTYYADDVK | GNNAGTFDV | 0.41 0.08 0.40 0.18 0.13 0.30 | 0.25 | 0 of 18 |
| 3 | GFDLNEYGIS | VIYADGMRTAYADNVK | GENAGTFDT | 0.65 -0.30 -0.68 -0.75 -0.95 -0.30 | -0.39 | 0 of 18 |
| 4 | GFDLNEYGIS | VIYADGKRTYYSDSVK | GNVAGTFDV | -0.09 0.16 -0.18 -0.22 -0.50 -0.05 | -0.15 | 0 of 18 |
| 5 | GFDLNEYGIS | VIYADGLRTAYADSVK | GNVAGTFDQ | 0.07 -0.42 -0.31 -0.39 -0.36 -0.25 | -0.28 | 0 of 18 |
| 6 | GFDLSEYGIS | VIYADGMRTAYADSVK | GNVAGTFDV | -1.27 -1.25 -1.40 0.67 -0.88 -1.35 | -0.91 | 0 of 18 |
| 7 | GFDLNEYGIS | VIYADGVRTAYSDSVK | GQVAGTFDV | -0.46 -0.20 -0.45 -0.73 -0.45 -0.33 | -0.44 | 0 of 18 |
| 8 | GFDLNEYGIS | VIYADGRRTAYVDSVK | GNNAGTFDI | n.d. n.d. n.d. n.d. 1.32 n.d. | 1.32 | 1 of 18 (1.51) |
| 9 | GFDLNEYGIS | VIYADGMRTSYADSVK | GSNAGTFDV | -0.92 -1.39 -0.70 -1.71 0.06 -1.19 | -0.97 | 0 of 18 |
| 10 | GFDLNEYGIS | VIYADGKRTAYVDSVK | GQNAGTFDV | 0.26 0.37 1.03 0.14 0.29 0.27 | 0.39 | 0 of 18 |
| 11 | GFDLDEYGIS | VIYADGMRTAYTDSVK | GANAGTFDI | 0.06 0.53 -0.11 0.27 -0.06 0.55 | 0.21 | 0 of 18 |
| 12 | GFDLNEYGIS | VIYADGQRTAYIDSVK | GEVAGTFDV | -0.13 -0.31 -0.28 -0.24 -0.25 -0.17 | -0.23 | 2 of 18 (2.05) |
| 13 | GFDLDEYGIS | VIYADGVRKAYADSVK | GNVAGTFDL | n.d. n.d. n.d. n.d. n.d. n.d. | n.d. | 0 of 18 |
| 14 | GFDLNEYGIS | VIYADGMRTAYADSVK | GTNAGTFVQ | n.d. 4.51 n.d. n.d. n.d. n.d. | 4.51 | 0 of 18 |
| 15 | GFDLNEYGIS | VIYADGVRTAYADSVK | GENGGTFDV | 0.85 -0.58 1.24 0.19 0.26 0.20 | 0.36 | 0 of 18 |
| 16 | GFDLEDYGIS | VIYADGRRTAYADSVK | GNVAGTFDI | 0.36 -0.07 -0.01 -0.49 -0.37 -0.15 | -0.12 | 0 of 18 |
| 17 | GFDLDEYGIS | VIYADGRRTAYSDSVK | GENAGTFDM | 0.17 -0.27 -0.53 -0.17 -0.55 -0.32 | -0.28 | 0 of 18 |
| 18 | GFDLDEYGIS | VIYADGMRKAYSDSVK | GNVAGTFDV | -0.54 -0.48 -0.64 -0.65 -0.70 -0.03 | -0.51 | 0 of 18 |
| 19 | GFDLDEYGIS | VIYADGMRTAYADDVK | GENAGTFDL | n.d. n.d. n.d. n.d. n.d. n.d. | n.d. | 1 of 18 (1.02) |
| 20 | GFDLNEYGIS | VIYADGRRTAYADSVK | GANAGTFDI | -0.56 0.17 -0.81 -0.27 -0.52 -0.84 | -0.47 | 0 of 18 |
| 21 | GFDLNEYGIS | VIYADGVRTAYADDVK | GQVAGTFDL | -0.51 -0.30 -0.51 -0.52 -0.08 -0.32 | -0.37 | 0 of 18 |
| 22 | GFDLNEYGIS | VIYADGLRTAYADSVK | GNQAGTFDI | 0.07 -0.33 -0.34 -0.45 0.09 -0.23 | -0.20 | 1 of 18 (4.09) |
| 23 | GFDLDEYGIS | VIYADGMRTAYVDSVK | GNVAGTFDI | -0.06 -0.37 -0.58 -0.29 -0.47 -0.29 | -0.34 | 0 of 18 |
| 24 | GFDLNEYGIS | VIYADGKRTAYVDSVK | GNQAGTFDV | -0.96 -1.05 -0.71 -1.21 -0.33 -0.77 | -0.84 | 1 of 18 (1.21) |
| 25 | GFDLNEYGIS | VIYADGMRTSYADSVK | GNQAGTFDI | -0.07 -0.37 -0.44 -0.61 -0.32 -0.63 | -0.41 | 1 of 18 (1.72) |
| 26 | GFDLDEYGIS | VIYADGMRTAYADSVK | GKNAGTFDV | 0.50 -0.28 0.71 -0.46 0.52 0.65 | 0.28 | 0 of 18 |
| 27 | GFDLNEYGIS | VIYADGMRTAYVDSVK | GQNAGTFDM | -0.37 -0.39 -0.65 -0.58 -0.45 -0.31 | -0.46 | 1 of 18 (3.21) |
| 28 | GFDLNEYGIS | VIYADGVRTAYADDVK | GGNAGTFDI | 0.16 -0.55 -0.50 -1.13 -0.72 -1.19 | -0.66 | 0 of 18 |
| 29 | GFDLDEYGIS | VIYADGQRTAYSDSVK | GTNAGTFDV | -0.44 -0.25 -0.40 -0.66 -0.27 -0.42 | -0.41 | 0 of 18 |
| 30 | GFDLNEYGIS | VIYADGMRTAYSDSVK | GEQAGTFDI | 0.82 0.46 0.41 0.36 0.46 0.99 | 0.58 | 1 of 18 (1.85) |
| 31 | GFDLNEYGIS | VIYADGVRTFYADSVK | GNVAGTFDI | 0.09 -0.15 -0.16 -0.28 -0.34 -0.05 | -0.15 | 2 of 18 (2.30) |
| 32 | GFDLDEYGIS | VIYADGVRTAYSDSVK | GEVAGTFDV | -0.57 -0.74 -0.27 -1.16 -0.55 -0.82 | -0.68 | 0 of 18 |
| 33 | GFDLNEYGIS | VIYADGVRKAYADSVK | GNVAGTFDL | -0.87 -0.87 -0.91 -1.51 -0.78 -0.90 | -0.97 | 0 of 18 |
| 34 | GFDLNEYGIS | VIYADGVRTAYTDSVK | GNVAGTFDT | -0.41 -0.60 -0.49 -0.67 -0.78 -0.04 | -0.50 | 1 of 18 (1.61) |
| 35 | GFDLDEYGIS | VIYADGVRTAYADSVK | GNTAGTFDI | -0.11 -0.65 -0.58 -1.00 -0.59 -0.46 | -0.57 | 0 of 18 |
| 36 | GFDLDEYGIS | VIYADGMRTYYADSVK | GETAGTFDV | -0.28 -0.20 -0.72 -0.56 -0.52 -0.26 | -0.43 | 0 of 18 |
| 37 | GFDLNEYGIS | VIYADGSRTAYADDVK | GTNAGTFDV | -1.64 -0.36 -0.17 -0.86 1.23 1.62 | -0.03 | 0 of 18 |
| 38 | GFDLNEYGIS | VIYADGMRTFYADSVK | GEVAGTFDI | -0.43 -0.64 -0.50 -0.72 -0.74 -0.68 | -0.62 | 0 of 18 |
| 39 | GFDLNEYGIS | VIYADGVRTSYADSVK | GNQAGTFDI | 0.00 -0.16 -0.62 -0.54 -0.56 -0.33 | -0.37 | 0 of 18 |
| 40 | GFDLEDYGIS | VIYADGKRTAYADSVK | GETAGTFDV | -0.76 -0.91 -0.20 -0.97 -0.51 -0.16 | -0.58 | 0 of 18 |
| 41 | GFDLNEYGIS | VIYADGMRTAYSDSVK | GENAGTFDM | -0.20 -0.27 -0.35 -0.67 -0.76 -0.10 | -0.39 | 0 of 18 |
| 42 | GFDLNEYGIS | VIYADGQRTFYADSVK | GNEAGTFDV | -0.29 -0.23 0.02 0.01 -0.87 -0.08 | -0.24 | 0 of 18 |
| 43 | GFDLDEYGIS | VIYADGRRTAYSDSVK | GEVAGTFDV | 0.67 -0.17 0.16 -0.30 0.10 -0.06 | 0.07 | 0 of 18 |
| 44 | GFDLNEYGIS | VIYADGQRTAYADSVK | GNEAGTFDI | n.d. n.d. n.d. n.d. n.d. n.d. | n.d. | 0 of 18 |
| 45 | GFDLDEYGIS | VIYADGKRTAYADSVK | GETAGTFDL | -0.62 -0.02 -1.05 -0.78 -1.00 -0.53 | -0.67 | 0 of 18 |
| 46 | GFDLNEYGIS | VIYADGMRTAYVDDVK | GNVAGTFDT | -0.42 -0.62 -0.60 -0.40 -0.48 -0.62 | -0.52 | 0 of 18 |
| 47 | GFDLNEYGIS | VIYADGMRTAYSDDVK | GNVAGTFDL | 0.15 -0.40 -0.25 -0.27 -0.12 -0.38 | -0.21 | 0 of 18 |
| 48 | GFDLEDYGIS | VIYADGMRTAYADSVK | GEVAGTFDQ | -0.71 -0.47 -0.85 -0.90 -0.55 -0.40 | -0.65 | 0 of 18 |
| 49 | GFDLNEYGIS | VIYADGMRTAYSDSVK | GNEAGTFDM | -0.47 -0.41 -0.23 -0.36 -1.06 -0.70 | -0.54 | 0 of 18 |
| 50 | GFDLNEYGIS | VIYADGMRTAYIDSVK | GNVAGTFDM | -0.10 -0.19 -0.16 -0.50 -0.38 -0.14 | -0.25 | 0 of 18 |